Laboratory results reported in patent US11760741B2, “Pro-drugs of eliglustat” (KASHIV BIOSCIENCES, LLC, priority 2018, dated 2023).

Test: Metabolic stability of prodrugs in human liver microsomes
Settings: NADPH, DPBS pH-7.4, LC-MS/MS

(1R,2R)-1-(2,3-dihydrobenzo[b][1,4]dioxin-6-yl)-2-octanamido-3-(pyrrolidin-1-yl)propyl diethyl phosphate
HLM stability (half-life, minutes): <30 min
